Ab-95 light chain CDR variants: yeast mating affinities

Reference: Engelhart et al. 2022, doi:10.1038/s41597-022-01779-4. File: FLAb, binding data.

Target: peptide PDVDLGDISGINAS, taken from heptad repeat 2 (HR2) of SARS-CoV-2 spike.

Parent scFv Ab-95: VH joined to VL by a 15-residue (Gly4Ser)3 linker. Changes lie in the light chain CDRs alone.
VH: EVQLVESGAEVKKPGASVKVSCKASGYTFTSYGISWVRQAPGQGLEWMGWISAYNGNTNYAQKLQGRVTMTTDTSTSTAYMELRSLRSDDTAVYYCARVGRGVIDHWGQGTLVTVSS
VL: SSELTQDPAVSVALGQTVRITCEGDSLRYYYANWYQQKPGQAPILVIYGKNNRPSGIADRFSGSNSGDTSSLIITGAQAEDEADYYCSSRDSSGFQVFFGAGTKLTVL

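Library AAYL52 holds single substitutions and randomly drawn double and triple substitutions in the CDRs. The assay is AlphaSeq: two haploid yeast populations carry antibody and antigen on their surface. Mating (16 h, 30 °C) was followed by selection of diploids and sequencing of their barcodes. The ratio of observed to expected reads was calibrated, replicate by replicate, on BCL2-family standards whose Kd was known from biolayer interferometry. Each pool was mated in three replicate cultures.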

The parent's light chain CDRs are EGDSLRYYYAN, GKNNRPS, SSRDSSGFQVF; each variant's own CDRs replace them letter for letter. Values are log10 of the apparent Kd in nM; lower means stronger binding. Where no diploid with the target was found in that replicate, the entry reads "nd": below detection, most likely a poor binder, though not proof of it.

The variant EGDSLRYYYGN / GKNNRPS / SSRDDSGMQVF showed 3.12, 4.20, nd.
The variant EGDSLRYYYAN / GTNERPS / SSRDSSCFQVF showed nd, nd, 3.35.
The variant EGQSLRYYYAN / GKNNMPS / SSQDSSGFQVF showed nd, nd, nd.
The variant EGDSLIYYKAN / GKNNRPS / SSRDSSGFQVF showed nd, 3.74, 4.28.
The variant EGMSLRYYYAN / GKNNRPS / SSRDSSGFGGF showed 2.85, 3.07, 3.71.
The variant EGDSERYYYAN / GKNNRPS / SSRDSSHFAVF showed 4.44, 5.07, nd.
The variant EGDSLRYSYAM / GKNNRPS / SSRDSSGFTVF showed 2.43, 2.56, 2.75.
The variant EGDSLRYYYAN / GKNNRPS / ASRDKSGFQIF showed nd, nd, nd.
The variant EGMSLRYYWAN / GKNNSPS / SSRDSSGFQVF showed 4.06, 4.34, nd.
The variant EGDSLRYCYAN / GKPNRPS / SSRDSPGFQVF showed 3.47, nd, nd.
The variant EGKSLRYYYAN / GKNNRPS / SIRDSSGKQVF showed 4.00, 2.82, 4.22.
The variant EGDSLRYYYAN / GKNNRPS / SSRDSKLEQVF showed 3.00, 4.10, nd.
The variant EGDSLRYYYAN / HKNNRAS / SYRDSSGFQVF showed 3.31, 4.78, 3.15.
The variant EGDSLRYHYAN / GKNNGPS / STRDSSGFQVF showed 2.73, 2.85, 3.36.
The variant EGDSIRYYCAN / GKNNRPS / SSRDSSEFQVF showed 4.67, nd, 2.77.
The variant EGDKLRYYDAN / GKNNRPS / SSRDSSGFQVF showed 3.99, 3.20, 3.95.
The variant SGDSLRYYYAL / GKNNRTS / SSRDSSGFQVF showed 4.06, nd, nd.
The variant EGDSLRYYYAN / GKNNRFS / SSRDSFGFQTF showed nd, nd, nd.
The variant EGDSLRYYYAK / GKNNTPP / SSRDSSGFQVF showed 5.43, 4.74, 4.33.
The variant DGDNLRYTYAN / GKNNRPS / SSRDSSGFQVF showed 2.24, 1.86, 3.01.
The variant EGDSLRTYYAR / GKNNRPS / SSRDSSGFQFF showed nd, 4.48, nd.
The variant EGDSLRVYYAN / EKNNQPS / SSRDSSGFQVF showed nd, nd, nd.
The variant EGDCLRYYYAN / GKNRRPS / SSRDSSGFQVV showed nd, 3.20, nd.
The variant EGDSLRYYYAP / GKNNRPS / HSRDKSGFQVF showed nd, nd, nd.
The variant VGDSLRYYYAN / GKNCRPS / SSHDSSGFQVF showed 2.90, 3.33, nd.
The variant EGDSLCYYYAN / GKNNRPS / SSRDSSGTQVF showed 2.51, 2.18, 2.42.
The variant EGKSLRYYYAN / VKNNRPS / SSRDSSGFQYF showed 3.67, nd, 4.22.
The variant ERDSLRYYYAN / GKNNQPS / SSYDSSGFQVF showed nd, nd, 3.38.
The variant EGYPLRYYYAN / GKNNWPS / SSRDSSGFQVF showed nd, nd, 4.06.
The variant EGDSLRYYYHN / QKNNRPL / SSRDSSGFQVF showed nd, nd, nd.
The variant TGDSLRYYYAN / GKNNRPS / SSIDSSGFQVF showed 4.18, 3.34, 3.93.
The variant EGDSLRYYYAN / GSNNRPE / SARDSSGFQVF showed 2.03, 1.83, 1.86.
The variant PGDSLRYYYAN / GKNNRPS / TSRDSSGFYVF showed 4.88, 5.00, 3.80.
The variant EGDSLRYYPAN / IKNRRPS / SSRDSSGFQVF showed 4.62, 4.38, nd.
The variant EGDSLRYSYAP / GKNNRPS / SSRKSSGFQVF showed nd, nd, nd.
The variant EGDSVRYYYAN / GKNNRPS / SSRDSAGFQVF showed 2.51, 3.36, nd.
The variant EGDSLRYYQAN / GKNNRPS / SSLDSSGFQLF showed 2.67, 2.60, 2.11.
The variant YDDSLRYYYAN / GKNNEPS / SSRDSSGFQVF showed 5.48, nd, nd.
The variant EGDKLRYYYAN / GKNNRPS / SSRDSSGMQVC showed 3.95, 4.12, nd.
The variant EGDSRRYYYAN / MKNNRPS / SSRDSSGFQVF showed 3.57, 3.55, 2.62.
The variant EGDSLRYYQAN / GWNNRPS / SERDSSGFQVF showed nd, nd, nd.
The variant VGDSHRYYYAN / GKNNRPS / SSRDSSGFQVM showed 4.21, 4.86, nd.
The variant EGDSLRYYYAN / SKNNLPS / SSCDSSGFQVF showed nd, nd, nd.
The variant EGRVLRYYYAN / GKNWRPS / SSRDSSGFQVF showed nd, nd, nd.
The variant ERDWLDYYYAN / GKNNRPS / SSRDSSGFQVF showed 2.76, 2.88, 2.58.
The variant EGDSLRYYYAN / GKNNRPS / KSRDSSGYQVF showed 2.09, 2.68, 1.62.
The variant EGDSLRGYYAN / GKNNRPS / SSRDSSGFQRF showed 2.24, 1.61, 1.68.
The variant EGDSLRYYYWN / GKNNSPQ / SSRDSSGFQVF showed 4.10, 3.10, nd.
The variant EGYSLRYYYAN / GKNNRPS / SNRDSSGFQVF showed 3.50, 2.41, 3.31.
The variant EGDSCHYYYAN / VKNNRPS / SSRDSSGFQVF showed nd, nd, nd.
The variant EGDSLRYEHAN / GKNNRPK / SSRDSSGFQVF showed 2.09, 1.93, 1.38.

Nonspecific signal, from three strains lacking the peptide, appeared in 28% of pairings of library AAYL52, centred on 3.91 (5% of these signals below 2.90); values are not corrected for it. In this assay the parent's reference entry averaged 2.31; its copy inside this library read 2.25.